Experimental data published in patent publication US11192890B2, “FGFR kinase inhibitors and pharmaceutical uses” (AUCKLAND UNISERVICES LIMITED, priority 2017, dated 2021).

System: phosphorylation of FGFR2 and ERK1/2 in SUM52 cells
Conditions: for concentration giving complete blockade of FGFR2 and ERK1/2 activation (FGF signalling fully silenced): FGF-stimulated SUM52 cells, Western blot

Row | Structure (SMILES) | concentration giving complete blockade of FGFR2 and ERK1/2 activation (FGF signalling fully silenced) | fold less potent than FGFR inhibitor compound 112 at inhibiting the phosphorylation of FGFR2 and ERK1/2 (SUM52 cells)
1 | CNc1ncc2c(n1)N([C@H]1CCN(C(=O)/C=C/CN(C)C)C1)C(=O)N(c1c(Cl)c(OC)cc(OC)c1Cl)C2 [Compound 103, (S,E)-3-(2,6-dichloro-3,5-dimethoxyphenyl)-1-(1-(4-(dimethylamino)but-2-enoyl)pyrrolidin-3-yl)-7-(methylamino)-3,4-dihydropyrimido[4,5-d]pyrimidin-2(1H)-one] | 30 nM | 
2 | COc1cc(OC)c(Cl)c(N2Cc3cnc(Nc4ccccc4)nc3N([C@H]3CCN(C(=O)/C=C/CN(C)C)C3)C2=O)c1Cl [Compound 106, (S,E)-3-(2,6-dichloro-3,5-dimethoxyphenyl)-1-(1-(4-(dimethylamino)but-2-enoyl)pyrrolidin-3-yl)-7-(phenylamino)-3,4-dihydropyrimido[4,5-d]pyrimidin-2(1H)-one] | 30 nM | 
3 | COc1cc(OC)c(Cl)c(N2Cc3cnc(Nc4ccccc4)nc3N(C3CCN(C(=O)/C=C/C[N+](C)(C)Cc4c([N+](=O)[O-])ncn4C)CC3)C2=O)c1Cl.[Br-] [Compound 204, (E)-4-(4-(3-(2,6-dichloro-3,5-dimethoxyphenyl)-2-oxo-7-(phenylamino)-3,4-dihydropyrimido[4,5-d]pyrimidin-1(2H)-yl)piperidin-1-yl)-N,N-dimethyl-N-((1-methyl-4-nitro-1H-imidazol-5-yl)methyl)-4-oxobut-2-en-1-aminium bromide] | 3000 nM | approximately 100 fold
